Earlier results as cited in patent US20170074857A1, “MEDICATION ADHERENCE MONITORING DEVICE” (UNIVERSITY OF FLORIDA RESEARCH FOUNDATION, INC., priority 2014, published 2017).

Conditions: cited from earlier work

For 2-propanol (isopropyl alcohol), the “LD50 Oral Rat” value is listed as 6045 mg/kg.
